The values below come from patent US5888763A, “Peptides specific for the first Crk-SH3 domain” (The Rockefeller University, priority 1994, dated 1999).

By UniProt entry, the sequences of proteins in these tests, tags left out. Residues count along the entry.
UniProt Q64010, 132-192 limits assumed: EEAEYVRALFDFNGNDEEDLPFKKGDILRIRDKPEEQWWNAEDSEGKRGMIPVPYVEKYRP
UniProt P06241, 82-143 limits assumed: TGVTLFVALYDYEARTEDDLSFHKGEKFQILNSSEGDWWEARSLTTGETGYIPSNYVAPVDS

Holding throughout (assay): SH3 filter binding assay: blotted SH3 domains probed with 35S-gst-4-12
Conditions in all cases: 35S-labeled probe

The target in one test is T1, first CrkSH3 domain (Mus musculus, UniProt Q64010).
T1 construct: probed with 1-2 μg/ml ^35 S-labeled gst-fusion CrkSH3(1) domain; made in house; host or cells: bacteria
Here is the method:
(§1) SH3 filter binding assay. The SH3 filter binding assay was carried out as described previously (Reichman, 1993, Cell Growth Diff. 3:451). Briefly, about 30 pmoles of each gst-fusion peptide or gst-fusion SH3 domain were blotted and incubated at room temperature over night in a buffer (TBS, 0.05% Tween-20, 1 mM DTT, 2% BSA, 1% ovalbumin) to allow renaturation. The blot with the gst-fusion peptides was probed with 1-2 μg/ml ^35 S-labeled gst-fusion CrkSH3(1) domain, whereas the blot that contains the SH3 domains was probed with ^35 S-labeled CB-1/gst-4-12 fusion peptide at 1-2 μg/ml. The blots were washed 3 times with TBS, 0.05% Tween-20, 1 mM DTT, 0.2% BSA, 0.1% ovalbumin, and bound probe was visualized by autoradiography.

Another test deals with T2, Fyn SH3 domain (Homo sapiens, UniProt P06241).
T2 construct: made in house; host or cells: bacteria
Here is the method:
as §1

A further test has as its system Grb2 SH3 domain. Here is the method: as §1
Test [1] concerns the target T3, p85α/PI3-Kinase SH3 domain (Homo sapiens).
T3 construct: The PI3Kp85-a-SH3 domain was a gift of L. Cantley
Here is the method:
as §1

A further test has as its system α-Spectrin SH3 domain. Here is the method: as §1

B1: gst-4-12: 9 amino acid gst-fusion peptide derived from CB-1 (protein)
chain: MSPILGYWKIKGLVQPTRLLLEYLEEKYEEHLYERDEGDKWRNKKFELGLEFPNLPYYIDGDVKLTQSMAIIRYIADKHNMLGGCPKERAEISMLEGAVLDIRYGVSRIAYSKDFETLKVDFLSKLPEMLKMFEDRLCHKTYLNGDHVTHPDFMLYDALDVVLYMDPMCLDAFPKLVCFKKRIEAIPQIDKYLKSSKYIAWPLQGWQATFGGGDHPPKPPALPPKKR
B1: the “binding to first CrkSH3 domain” value with first CrkSH3 domain is “bound strongly”. Further, the “binding to Fyn SH3 domain” value with Fyn SH3 domain was “weak interaction”. For the same molecule, the “binding to Grb2 SH3 domain” value in the test with Grb2 SH3 domain is reported as “weak interaction”. In addition, in test [1], the “binding to p85α/PI3-Kinase SH3 domain” value is “weak interaction”. Moreover, the “binding to α-Spectrin SH3 domain” value with α-Spectrin SH3 domain is on record as “weak interaction”.
